PubChem BioAssay AID848 (Columbia University Molecular Screening Center, 2007)
The entries are a selection whose mix differs from that of the whole data set. The source made the active and inactive calls.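 The calls were made as follows: active = cell count reduction exceeding the screen mean by over 5 SD, scaled to untreated wells per plate (cut at about 78% in these data); inactive = the rest.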

assay: HUVEC nuclei count loss under TNFa – imaging, Hoechst nuclei count, cytotoxicity control for VCAM1 expression modulator project, primary screen (AID 848); conditions: HUVEC TNFalpha-stimulated, at 2 µM, active compounds read high;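 also: cells counted after 24 h of TNF alpha exposure following the 1 h pretreatment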

SMILES	cell count reduction
CP(=S)(Nn1cnnc1)Oc1ccccc1 (stereo not given)	inactive: -7.9%
CP(=O)(NC(=O)Nc1ccccc1)Oc1ccccc1 (stereo not given)	inactive: -35.4%
CP(=O)(Nc1ccccn1)Oc1ccc(Cl)cc1 (stereo not given)	inactive: -6.2%
COc1ccc(OP(C)(=O)Nc2cccc(F)c2)cc1 (stereo not given)	inactive: -30.9%
Cc1cc(C)cc(OP(C)(=O)Nc2ccc(C)cc2C)c1 (stereo not given)	inactive: -31.9%
Cc1ccc(C)c(NP(C)(=O)Oc2ccccc2)c1 (stereo not given)	inactive: -7.5%
Cc1cc(C)cc(OP(C)(=O)Nc2ccccn2)c1 (stereo not given)	inactive: -2.9%
Cc1nc2ccc3ccccc3c2s1.O=[N+]([O-])c1cc([N+](=O)[O-])c(O)c([N+](=O)[O-])c1	inactive: -3.9%
COc1ccccc1OP(C)(=O)Nc1c(C)cccc1C (stereo not given)	inactive: -11.6%
COc1ccc(OP(C)(=O)Nc2cccc(Br)c2)cc1 (stereo not given)	inactive: -15.7%
CN(C)CCOC(=O)C(O)(c1ccccc1)C1CCCCC1 (stereo not given)	inactive: 8.5%
CCOP(C)(=S)SCC(=O)NC(C)(CC)C(=O)O (stereo not given)	inactive: -21.5%
CP(=O)(Nc1ccc2c(c1)OCCO2)Oc1ccccc1 (stereo not given)	inactive: -9.2%
CP(=O)(Nc1ccccc1F)Oc1ccccc1 (stereo not given)	inactive: -25.5%
CCN(CC)CCCOC(=O)C(O)(c1ccccc1)C1CCCCC1 (stereo not given)	inactive: 0%
CP(=O)(Nc1ccccc1)Oc1ccc(F)cc1 (stereo not given)	inactive: -11.3%
COc1ccccc1OP(C)(=O)Nc1ccc(C)c(C)c1 (stereo not given)	inactive: -27.3%
Cc1nc2ccc3ccccc3c2o1.O=[N+]([O-])c1cc([N+](=O)[O-])c(O)c([N+](=O)[O-])c1	inactive: -14.3%
COc1ccc(OP(C)(=O)Nc2ccccn2)cc1 (stereo not given)	inactive: -7.9%
CN(C)CCOC(=O)C(O)(c1ccccc1)C1CCCC1 (stereo not given)	inactive: -23.6%
Cc1c(NP(C)(=O)Oc2ccc(C(C)C)cc2)c(=O)n(-c2ccccc2)n1C (stereo not given)	inactive: 0%
CP(=O)(Nc1ccccn1)Oc1ccccc1 (stereo not given)	inactive: -36%
COc1ccccc1OP(C)(=O)Nc1ccc(C)cc1C (stereo not given)	inactive: -38.2%
CCc1ccc(OP(C)(=O)O)cc1	inactive: -38.9%
CCN(CC)CC(O)COC(=O)C(O)(c1ccccc1)C1CCCCC1 (stereo not given)	inactive: -33.6%
COc1ccccc1OP(C)(=O)Nc1c(C)n(C)n(-c2ccccc2)c1=O (stereo not given)	inactive: -40.5%
CP(=O)(Oc1ccccc1)N1CCOC1=O (stereo not given)	inactive: 3.4%
CC(C)(C)c1ccc(OP(C)(=O)O)cc1	inactive: -31%
CP(=O)(Nc1ccc(Cl)cc1)Oc1ccc(F)cc1 (stereo not given)	inactive: -17.2%
CP(=O)(OC12CC3CC(CC(C3)C1)C2)OC12CC3CC(CC(C3)C1)C2	inactive: 1.4%
